Test system: Nc1ccn([C@@H]2O[C@H](COP(=O)(O)OP(=O)(O)OP(=O)(O)O)[C@@H](O)[C@H]2F)c(=O)n1
Assay: purified protein, by the assay type
Settings: pH 7.5

(Human respiratory syncytial virus A2) gave a Km of 0.12 ± 0.014 µM.
